Consider two molecules from patent US9249153B2, “Pharmaceutical composition for treating aging-associated diseases, containing progerin expression inhibitor as active ingredient, and screening method of said progerin expression inhibitor” (PUSAN NATIONAL UNIVERSITY INDUSTRY-UNIVERSITY COOPERATION …, priority 2011, dated 2016).

In this test the test system is H3K9Me3. The following applies: HGPS cells.

Take `CC1(C)Oc2cc3oc(=O)ccc3cc2C[C@@H]1OC(=O)C=Cc1cccnc1` [JH4, (7S)-(+)-3-(3-Pyridyl)-acrylic acid, 8,8-dimethyl-2-oxo-6,7-dihydro-2H,8H-pyrano[3,2-g]chromen-7-yl-ester]: the “expression of H3K9Me3” value was “increased the expression of H3K9Me3”.
As to `CC1(C)Oc2cc3oc(=O)ccc3cc2C[C@@H]1OC(=O)C=Cc1ccc(O)c(O)c1` [JH13, (7S)-(+)-3-(3,4-Dihydroxy-phenyl)-acrylic acid, 8,8-dimethyl-2-oxo-6,7-dihydro-2H,8H-pyrano[3,2-g]chromen-7-yl-ester], the “expression of H3K9Me3” value is recorded as “increased the expression of H3K9Me3”.
